Results taken from PMC4755858 (Biochemistry, 2016).

The chains behind the UniProt entries cited, without tags or fusion partners. Residues count along the entry.
UniProt P37484, 84-659: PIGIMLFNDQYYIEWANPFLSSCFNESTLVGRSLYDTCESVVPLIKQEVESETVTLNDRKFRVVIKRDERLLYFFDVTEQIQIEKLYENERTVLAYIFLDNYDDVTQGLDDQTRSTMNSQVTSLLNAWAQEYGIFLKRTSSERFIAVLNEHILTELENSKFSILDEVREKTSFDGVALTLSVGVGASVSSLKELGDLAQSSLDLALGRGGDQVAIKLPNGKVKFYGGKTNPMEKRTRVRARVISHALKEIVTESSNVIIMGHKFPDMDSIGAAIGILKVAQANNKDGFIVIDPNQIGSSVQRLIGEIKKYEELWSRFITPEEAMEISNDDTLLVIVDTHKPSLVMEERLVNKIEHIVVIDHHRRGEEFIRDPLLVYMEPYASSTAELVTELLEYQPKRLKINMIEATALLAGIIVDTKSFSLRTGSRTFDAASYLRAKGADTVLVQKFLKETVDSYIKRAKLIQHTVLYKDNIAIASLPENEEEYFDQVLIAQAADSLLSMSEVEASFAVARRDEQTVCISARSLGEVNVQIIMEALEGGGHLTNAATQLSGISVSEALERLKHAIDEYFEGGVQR

Columns and labels:
[1] = system: wild-type ydaO riboswitch; assay: gel-shift; format: binding, Bacillus subtilis; conditions: loss in affinity for wild-type ydaO relative to c-di-AMP
[2] = molecular target: phosphodiesterase protein GdpP (GdpP84–659) (Bacillus subtilis, UniProt P37484); assay: HPLC phosphodiesterase assay, degradation rates of c-di-AMP and analogs; format: biochemical; conditions: hydrolysis rate relative to c-di-AMP (fold slower)

## Nc1nc2c(ncn2[C@@H]2O[C@@H]3COP(=O)(O)O[C@H]4[C@@H](O)[C@H](n5cnc6c(=O)[nH]c(N)nc65)O[C@@H]4COP(=O)(O)O[C@H]3[C@H]2O)c(=O)[nH]1 [c-di-GMP, (3’-5’)-cyclic diguanosine monophosphate, reference compound]
[1]
  Fold Loss: > 2.0 × 10^7
[2]
  Fold Change: 5.1
